Data from PubChem BioAssay (NCI).
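Each compound was tested at five concentrations against cells in 96-well plates for 48 hours. GI50 is the concentration that inhibits growth by half. TGI denotes the concentration required for complete inhibition of growth.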

Tests used:
Experiment in all cases: NCI tumour cell line growth inhibition, 48 h
[1] = test system: HOP-92 NSCLC
[2] = test system: SF-295 CNS
[3] = test system: CAKI-1 renal
[4] = test system: OVCAR-8 ovarian
[5] = test system: NCI-H322M lung
[6] = test system: SR leukemia
[7] = test system: PC-3 prostate
[8] = test system: NCI-H460 lung
[9] = test system: K-562 leukemia
[10] = test system: OVCAR-5 ovarian
[11] = test system: HS 578T breast
[12] = test system: SK-OV-3 ovarian
[13] = test system: COLO 205 colon
[14] = test system: A549 NSCLC
[15] = test system: MDA-MB-435
[16] = test system: SK-MEL-2 melanoma
[17] = test system: HL-60(TB) leukemia
[18] = test system: SK-MEL-5 melanoma
[19] = test system: SNB-19 CNS
[20] = test system: HT29 colon
[21] = test system: TK-10 renal
[22] = test system: UACC-257 melanoma
[23] = test system: EKVX NSCLC
[24] = test system: BT-549 breast
[25] = test system: U251 CNS
[26] = test system: DU-145 prostate
[27] = test system: LOX IMVI melanoma
[28] = test system: OVCAR-4 ovarian
[29] = test system: SNB-75 CNS
[30] = test system: RPMI-8226 leukemia
[31] = test system: T-47D breast
[32] = test system: SK-MEL-28 melanoma
[33] = test system: UO-31 renal
[34] = test system: KM12 colon
[35] = test system: IGROV1 ovarian
[36] = test system: MOLT-4 leukemia
[37] = test system: HCT-116 colon
[38] = test system: SW-620 colon
[39] = test system: HCT-15 colon
[40] = test system: MCF7 breast
[41] = test system: NCI-H522 lung
[42] = test system: MDA-N
[43] = test system: OVCAR-3 ovarian
[44] = test system: CCRF-CEM leukemia
[45] = test system: MALME-3M melanoma
[46] = test system: SF-268 CNS
[47] = test system: NCI-H226 lung
[48] = test system: SN12C renal
[49] = test system: UACC-62 melanoma
[50] = test system: M14 melanoma
[51] = test system: 786-0 renal
[52] = test system: ACHN renal
[53] = test system: NCI/ADR-RES ovarian
[54] = test system: HOP-62 NSCLC
[55] = test system: NCI-H23 lung

## COP(C)(=O)C(N)Cc1ccccc1.O=[N+]([O-])c1cc([N+](=O)[O-])c(O)c([N+](=O)[O-])c1
[1]
  GI50: > 100 µM
  TGI: > 100 µM
[2]
  GI50: > 100 µM
  TGI: > 100 µM
[3]
  GI50: > 100 µM
  TGI: > 100 µM
[4]
  GI50: > 100 µM
  TGI: > 100 µM
[5]
  GI50: > 100 µM
  TGI: > 100 µM
[6]
  GI50: > 100 µM
  TGI: > 100 µM
[7]
  GI50: > 100 µM
  TGI: > 100 µM
[8]
  GI50: > 100 µM
  TGI: > 100 µM
[9]
  GI50: > 100 µM
  TGI: > 100 µM
[10]
  GI50: > 100 µM
  TGI: > 100 µM
[11]
  GI50: > 100 µM
  TGI: > 100 µM
[12]
  GI50: > 100 µM
  TGI: > 100 µM
[13]
  GI50: > 100 µM
  TGI: > 100 µM
[14]
  GI50: > 100 µM
  TGI: > 100 µM
[15]
  GI50: 43.2 µM
  TGI: > 100 µM
[16]
  GI50: > 100 µM
  TGI: > 100 µM
[17]
  GI50: > 100 µM
  TGI: > 100 µM
[18]
  GI50: 71.8 µM
  TGI: > 100 µM
[19]
  GI50: > 100 µM
  TGI: > 100 µM
[20]
  GI50: > 100 µM
  TGI: > 100 µM
[21]
  GI50: > 100 µM
  TGI: > 100 µM
[22]
  GI50: 97.2 µM
  TGI: > 100 µM
[23]
  GI50: > 100 µM
  TGI: > 100 µM
[24]
  GI50: > 100 µM
  TGI: > 100 µM
[25]
  GI50: > 100 µM
  TGI: > 100 µM
[26]
  GI50: > 100 µM
  TGI: > 100 µM
[27]
  GI50: > 100 µM
  TGI: > 100 µM
[28]
  GI50: > 100 µM
  TGI: > 100 µM
[29]
  GI50: > 100 µM
  TGI: > 100 µM
[30]
  GI50: > 100 µM
  TGI: > 100 µM
[31]
  GI50: > 100 µM
  TGI: > 100 µM
[32]
  GI50: > 100 µM
  TGI: > 100 µM
[33]
  GI50: > 100 µM
  TGI: > 100 µM
[34]
  GI50: > 100 µM
  TGI: > 100 µM
[35]
  GI50: > 100 µM
  TGI: > 100 µM
[36]
  GI50: > 100 µM
  TGI: > 100 µM
[37]
  GI50: > 100 µM
  TGI: > 100 µM
[38]
  GI50: > 100 µM
  TGI: > 100 µM
[39]
  GI50: > 100 µM
  TGI: > 100 µM
[40]
  GI50: > 100 µM
  TGI: > 100 µM
[41]
  GI50: 80.3 µM
  TGI: > 100 µM
[42]
  GI50: 42 µM
  TGI: > 100 µM
[43]
  GI50: > 100 µM
  TGI: > 100 µM
[44]
  GI50: > 100 µM
  TGI: > 100 µM
[45]
  GI50: 70.2 µM
  TGI: > 100 µM
[46]
  GI50: > 100 µM
  TGI: > 100 µM
[47]
  GI50: > 100 µM
  TGI: > 100 µM
[48]
  GI50: > 100 µM
  TGI: > 100 µM
[49]
  GI50: > 100 µM
  TGI: > 100 µM
[50]
  GI50: > 100 µM
  TGI: > 100 µM
[51]
  GI50: > 100 µM
  TGI: > 100 µM
[52]
  GI50: > 100 µM
  TGI: > 100 µM
[53]
  GI50: > 100 µM
  TGI: > 100 µM
[54]
  GI50: > 100 µM
  TGI: > 100 µM
[55]
  GI50: > 100 µM
  TGI: > 100 µM
